Measured values published in ChEMBL document CHEMBL1132937, “Protease inhibitors: synthesis of potent bacterial collagenase and matrix metalloproteinase inhibitors incorporating N-4-nitrobenzylsulfonylglycine hydroxamate moieties” (J Med Chem, 2000).

The chains behind the UniProt entries cited, without tags or fusion partners. Where a name states a change or a piece, a line headed by the entry shows the natural chain unless it says otherwise.
UniProt P22894: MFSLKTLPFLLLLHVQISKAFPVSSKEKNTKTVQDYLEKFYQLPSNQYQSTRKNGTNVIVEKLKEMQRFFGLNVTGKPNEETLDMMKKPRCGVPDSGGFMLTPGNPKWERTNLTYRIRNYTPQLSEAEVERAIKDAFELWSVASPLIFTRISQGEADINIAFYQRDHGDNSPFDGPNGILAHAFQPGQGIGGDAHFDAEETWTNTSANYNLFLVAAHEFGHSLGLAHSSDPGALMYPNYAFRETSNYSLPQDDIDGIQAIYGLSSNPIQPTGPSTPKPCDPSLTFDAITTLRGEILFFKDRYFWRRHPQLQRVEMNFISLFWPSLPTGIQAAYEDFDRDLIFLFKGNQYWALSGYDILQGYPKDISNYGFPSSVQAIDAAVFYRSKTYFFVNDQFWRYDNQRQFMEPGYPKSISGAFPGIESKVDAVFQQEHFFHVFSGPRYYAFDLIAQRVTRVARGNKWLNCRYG
UniProt P14780: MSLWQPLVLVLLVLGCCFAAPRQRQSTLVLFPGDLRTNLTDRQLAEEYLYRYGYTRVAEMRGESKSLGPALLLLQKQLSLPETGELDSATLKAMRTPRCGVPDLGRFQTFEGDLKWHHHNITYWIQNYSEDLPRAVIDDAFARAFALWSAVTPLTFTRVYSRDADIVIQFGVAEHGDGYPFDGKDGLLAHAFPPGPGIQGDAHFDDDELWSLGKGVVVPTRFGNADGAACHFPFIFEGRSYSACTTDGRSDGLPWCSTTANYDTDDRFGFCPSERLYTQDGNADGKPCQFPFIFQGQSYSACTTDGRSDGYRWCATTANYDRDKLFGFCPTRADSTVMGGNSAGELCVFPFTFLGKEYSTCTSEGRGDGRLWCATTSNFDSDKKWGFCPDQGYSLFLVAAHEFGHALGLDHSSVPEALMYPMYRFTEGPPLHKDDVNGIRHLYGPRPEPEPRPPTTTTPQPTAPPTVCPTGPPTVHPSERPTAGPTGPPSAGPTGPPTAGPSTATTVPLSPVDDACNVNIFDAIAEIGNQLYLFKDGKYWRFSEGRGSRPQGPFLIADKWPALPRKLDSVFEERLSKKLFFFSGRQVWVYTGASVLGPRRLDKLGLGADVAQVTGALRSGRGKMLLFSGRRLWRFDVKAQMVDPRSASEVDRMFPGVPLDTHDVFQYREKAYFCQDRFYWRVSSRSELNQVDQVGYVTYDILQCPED
UniProt P08253: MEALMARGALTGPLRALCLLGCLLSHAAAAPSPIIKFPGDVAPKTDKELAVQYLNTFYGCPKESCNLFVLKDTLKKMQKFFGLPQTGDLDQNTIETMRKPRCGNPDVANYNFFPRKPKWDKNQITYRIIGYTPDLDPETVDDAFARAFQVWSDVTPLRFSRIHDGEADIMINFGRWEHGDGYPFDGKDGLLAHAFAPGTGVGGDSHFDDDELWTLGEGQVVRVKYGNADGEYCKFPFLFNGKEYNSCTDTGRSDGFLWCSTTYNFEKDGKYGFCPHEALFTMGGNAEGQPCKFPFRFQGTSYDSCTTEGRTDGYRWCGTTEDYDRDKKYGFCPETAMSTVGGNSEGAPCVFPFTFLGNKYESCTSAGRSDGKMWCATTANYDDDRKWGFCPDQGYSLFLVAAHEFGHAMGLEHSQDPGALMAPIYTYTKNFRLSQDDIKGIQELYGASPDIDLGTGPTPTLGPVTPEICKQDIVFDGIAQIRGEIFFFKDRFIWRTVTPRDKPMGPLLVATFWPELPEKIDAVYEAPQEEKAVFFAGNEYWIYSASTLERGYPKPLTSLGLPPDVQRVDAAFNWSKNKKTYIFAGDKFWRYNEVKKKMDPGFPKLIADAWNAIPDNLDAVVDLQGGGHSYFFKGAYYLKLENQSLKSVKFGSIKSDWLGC

How the values were obtained:
[1] = molecular target: T1, Interstitial collagenase (Homo sapiens, UniProt P03956)
T1 sequence (P03956 whole entry): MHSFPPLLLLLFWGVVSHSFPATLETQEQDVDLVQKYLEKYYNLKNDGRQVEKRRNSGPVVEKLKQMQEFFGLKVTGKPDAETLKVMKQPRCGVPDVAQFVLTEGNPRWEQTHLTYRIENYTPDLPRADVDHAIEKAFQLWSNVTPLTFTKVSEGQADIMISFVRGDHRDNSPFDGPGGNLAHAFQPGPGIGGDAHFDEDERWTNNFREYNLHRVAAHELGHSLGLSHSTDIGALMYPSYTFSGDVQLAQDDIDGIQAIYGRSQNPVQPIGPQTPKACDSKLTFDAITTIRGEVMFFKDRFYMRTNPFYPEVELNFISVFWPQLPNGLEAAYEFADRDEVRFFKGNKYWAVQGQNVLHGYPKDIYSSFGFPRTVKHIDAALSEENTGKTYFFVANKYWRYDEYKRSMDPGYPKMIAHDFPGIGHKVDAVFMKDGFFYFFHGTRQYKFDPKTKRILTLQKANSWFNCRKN

[2] = molecular target: Neutrophil collagenase (Homo sapiens, UniProt P22894)
[3] = molecular target: Matrix metalloproteinase-9 (Homo sapiens, UniProt P14780)
[4] = molecular target: 72 kDa type IV collagenase (Homo sapiens, UniProt P08253)

Row | SMILES | Ki [1] | Ki [2] | Ki [3] | Ki [4]
1 | O=C(CN(Cc1ccc([N+](=O)[O-])cc1)S(=O)(=O)c1cccc([N+](=O)[O-])c1)NO | 18 nM | 10 nM | 8 nM | 12 nM
2 | Cc1ccc(S(=O)(=O)NC(=O)Nc2ccc(S(=O)(=O)N(CC(=O)NO)Cc3ccc([N+](=O)[O-])cc3)cc2)cc1 | 55 nM | 1.2 nM | 0.5 nM | 0.7 nM
